Data on 1 compound can be found in patent US10239903B2, “Pt (IV) derivatives and nanocarriers comprising them” (Yissum Research Development Company of the Hebrew …, priority 2014, dated 2019).

This assay deals with A2780-cisR cell line. The assay can be described thus: MTT cytotoxicity assay. It counts as cell-based. (In general: Tetrazolium dyes change colour on reduction, which living cells bring about.)

Structures are written as SMILES.

As to `O=C1[O][Pt]2([NH][C@@H]3CCCC[C@H]3[NH]2)[O]C1=O` [Oxaliplatin, reference compound], the resistance factor (calculated from IC50 values of dose-response curves, A2780-cisR vs A2780 (FIG. 10)) was 5.2. For the setting “ratio of IC50 in A2780-cisR to A2780”, the “RF, resistance factor” value worked out at 5.21.
